According to US20180271960A1, “METHOD TO TREAT CANCER USING ARGININE DELPETOR AND ORNITHINE DECARBOXYLASE (ODC) INHIBITOR” (Bio-Cancer Treatment International Ltd., priority 2015, published 2018):

What was measured:
Type in all cases: cell-based
[1] = system: HCC4006 lung adenocarcinoma cell line; test: MTT assay, growth inhibition of HCC4006 cell line; settings: MTT assay after treatment for 72 h
Description: (§1) In one example embodiment, eight lung adenocarcinoma cell lines (i.e. H23, H358, HCC827, H1650, H1975, HCC2935, HCC4006, and A549), obtained from ATCC, are used to assess the in vitro efficacies of PEG-BCT-100 and ADI. The inhibition ratio (IR) and the half maximal inhibitory concentration (IC50) values are determined by a MTT assay.

[2] = system: HCC2935 lung adenocarcinoma cell line; test: MTT assay, growth inhibition of HCC2935 cell line; settings: MTT assay after treatment for 72 h
Description: as §1

[3] = system: H1650 lung adenocarcinoma cell line; test: MTT assay, growth inhibition of H1650 cell line; settings: MTT assay after treatment for 72 h
Description: as §1

[4] = system: H1975 lung adenocarcinoma cell line; test: MTT assay, growth inhibition of H1975 cell line; settings: MTT assay after treatment for 72 h
Description: as §1

[5] = system: lung adenocarcinoma cell lines (H23, H358, HCC827, H1650, H1975, HCC2935, HCC4006, and A549); test: MTT assay on the panel of eight lung adenocarcinoma cell lines; settings: all tested cell lines; MTT assay after treatment for 72 h
Description: as §1

## arginine deiminase [ADI]
[1]
  cytotoxicity (cell viability): less cytotoxic effects
[2]
  cytotoxicity (cell viability): less cytotoxic effects
[3]
  cytotoxicity (cell viability): less cytotoxic effects
[4]
  cytotoxicity (cell viability): less cytotoxic effects
[5]
  cytotoxicity (cell viability): induces cytotoxicity in all cell lines
